Target: dopamine transporter (DT) / serotonin transporter (ST)
Test: [125I]RTI 55 radioligand binding
Conditions: transporter not specified

COC(=O)C1C2CCC(CC1c1ccc(I)cc1)N2 (single isomer, unassigned; (-)) [[^125I]RTI 55, (−)2β-carbomethoxy-3-β-(4-iodophenyl)nortropane] showed a Kd of 0.91 ± 0.04 nM.

Source: patent publication US6387389B1 (priority 1996, dated 2002)
